Test system: isolated rings of the saphenous artery of rabbits
Assay: Vessel-relaxing action in vitro, phenylephrin-induced contractions of isolated saphenous artery rings
Set-up: species or system rabbit
Conditions: Oryctolagus cuniculus; contraction induced by 3×10^−8 g of phenylephrin/ml; concentration reducing control contraction by 50%
Description: The inhibition of the enzyme is investigated in an in vitro assay with recombinant Rho kinase II. The vessel-relaxing action is determined using phenylephrin-induced contractions of isolated rings of the saphenous artery of rabbits.
Vessel-Relaxing Action In Vitro
Individual 3-mm-wide rings of the isolated saphenous artery of rabbits are introduced into 5 ml organ baths with Krebs-Henseleit solution (37° C., gassed with carbogen). The vessel tone is monitored isometrically and registered. Contractions are induced by addition of 3×10^−8 g of phenylephrin/ml, which is washed out again after 4 min. After a number of control cycles, the rings are pre-incubated with the substance to be examined, with the dosage being increased for each further cycle, and the subsequent contraction is compared to the intensity of the last control contraction.

IC50: 350 nM
SMILES: Nc1nc(Nc2ccc(Oc3ccnc4[nH]ccc34)c(F)c2)cc(-c2ccncc2)n1 [Example 19, N-[2-Amino-6-(4-pyridinyl)-4-pyrimidinyl]-N-[3-fluoro-4-(1H-pyrrolo[2,3-b]pyridin-4-yloxy)phenyl]amine]
